This is a selection; strong and weak results do not stand in their true shares. Activity calls are given as the source filed them.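 Rule for the calls: active = ranked among the strongest by inhibition in the single 10 µM screen, a fixed top-ranked set picked for dose follow-up; inactive = the rest, inconclusive results apart.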

The subject of the assay is mevalonate kinase [Streptococcus pneumoniae D39]. The assay can be described thus: pneumococcal mevalonate kinase activity blockers – biochemical, PK/LDH-coupled NADH absorbance, primary screen (AID 555). The following applies: purified MK, PK/LDH-coupled NADH absorbance 340 nm; at 10 µM; active compounds read high.
In general, inhibition refers to the percentage by which the read-out fell short of the control. Consider `CP(=O)(Nc1ccccc1F)Oc1ccccc1` (stereo unspecified), for which the inhibition was inactive: 3%.
To `O=P1(Nc2nc3ccc(Cl)cc3s2)COc2ccccc2O1` (stereo unspecified) belongs inactive: 12%.
Next, `COC(=O)c1cc2c(s1)N=C(c1ccccc1)N(C)P2(=O)N1CCOCC1` (stereo unspecified): inactive: 2%.
Next, `CN(C)CCOC(=O)C(O)(c1ccccc1)C1CCCCC1` (stereo unspecified): inactive: 2%; `O=C(OC1CN2CCC1CC2)c1cccc(Cl)c1` (stereo unspecified): inactive: 7%.
For the molecule `c1nnnn1CCn1cnnn1`, the inhibition was inactive: 6%.
Next, `CCOP(C)(=S)SCC(=O)NC(C)(CC)C(=O)O` (stereo unspecified): inactive: 7%; `O=P(Nc1nccs1)(c1ccccc1)c1ccccc1`: inactive: 0%; `Cc1ccccc1NP(C)(=O)Nc1ccccc1C`: inactive: 0%.
To `CP(=O)(Nc1ccc2c(c1)OCCO2)Oc1ccccc1` (stereo unspecified) belongs inactive: 4%; to `CCc1nc2c(n1)c1c(non1O)c1c2no[n+]1[O-]`, inactive: 0%; to `CP(=O)(Oc1ccccc1)N1CCOC1=O` (stereo unspecified), inactive: 8%.
Next, `COc1ccccc1OP(C)(=O)Nc1c(C)n(C)n(-c2ccccc2)c1=O` (stereo unspecified): inactive: 7%; `COc1ccccc1OP(C)(=O)Nc1ccc(C)c(C)c1` (stereo unspecified): inactive: 8%.
Consider `Cc1nc2ccc3ccccc3c2o1.O=[N+]([O-])c1cc([N+](=O)[O-])c(O)c([N+](=O)[O-])c1`, for which the inhibition is inactive: 14%.
For `CP(=O)(Nc1ccccn1)Oc1ccccc1` (stereo unspecified), the inhibition was inactive: 4%.
For the molecule `Cc1c2non([O-])c-2c(C)[n+](=O)[n+]1[O-]`, the inhibition was inactive: 6%.
With `O=C(OC1CN2CCC1CC2)C12CC3CC(CC(C3)C1)C2` (stereo unspecified), the inhibition was inactive: 8%.
Next, `Cc1ccc(NP(C)(=O)Oc2ccccc2)c(C)c1` (stereo unspecified): inactive: 6%.
For `COc1ccccc1OP(C)(=O)Nc1ccc(C)cc1` (stereo unspecified), the inhibition is inactive: 7%.
With `CP(=S)(Nn1cnnc1)Oc1ccccc1` (stereo unspecified), the inhibition was inactive: 4%.
Take `CP(=O)(NC(=O)Nc1ccccc1)Oc1ccccc1` (stereo unspecified): the inhibition is inactive: 11%.
To `O=C(COc1ccccc1)OC1CN2CCC1CC2` (stereo unspecified) belongs inactive: 2%; to `COP1(=S)c2c(C)nn(CCC#N)c2N=C(c2ccc(F)cc2)N1C` (stereo unspecified), inactive: 0%.
With `CCOP(C)(=S)SCC(=O)NC(C)C(=O)O` (stereo unspecified), the inhibition is inactive: 9%.
Next, `Clc1n[nH]nc1-c1nn[nH][15n]1`: inactive: 0%.
To `O=P1(Nc2ccccn2)COc2ccccc2OC1` belongs inactive: 10%.
To `Cc1nc2ccc3ccccc3c2s1.O=[N+]([O-])c1cc([N+](=O)[O-])c(O)c([N+](=O)[O-])c1` belongs inactive: 12%; to `Cc1nn(-c2ccccc2)c2c1P(=O)(N1CCOCC1)N(C)C(c1ccccc1)=N2` (stereo unspecified), inactive: 9%.
On to `Cc1ccc(OCC(=O)OC2CN3CCC2CC3)cc1` (stereo unspecified), for which the inhibition is inactive: 2%.
To `O=P1(Nc2ccc(Br)cn2)COc2ccccc2OC1` belongs inactive: 5%.
Next, `O=P1(Nc2ncccn2)COc2ccccc2OC1`: inactive: 14%; `CCOP1(=S)c2c(C)nn(CCC#N)c2N=C(c2ccccc2F)N1C` (stereo unspecified): inactive: 1%.
To `CCOP1(=S)c2c(C)nn(CCC#N)c2N=C(c2ccc(F)cc2)N1C` (stereo unspecified) belongs inactive: 4%; to `Cc1cccc(OCC(=O)OC2CN3CCC2CC3)c1` (stereo unspecified), inactive: 4%.
On to `Cc1ccc(C)c(NP(C)(=O)Oc2ccccc2)c1` (stereo unspecified), for which the inhibition was inactive: 5%.

Values taken from PubChem BioAssay AID555 (SRMLSC, 2006).
